Values quoted from earlier work, collected in patent publication US20050176623A1, “Non-invasive treatment of disease using amphipathic compounds” (priority 2004, published 2005).

Details: metered dose inhaler

## insulin
  amount delivered into the serum per inhaled breath: 15 mg
